# Results published in patent publication US9474744B2, “Beta-lactam compounds for treating diabetes” (STEM CELL MEDICINE LTD., priority 2011, dated 2016).
# Key:
# human CD4 T cells = assay: Uptake of penicillin-modified albumin by T cells (Pen 9 western blot of cytoplasmic and nuclear fractions); format: cell-based
# Protocol: To test whether penicillin-modified albumin can enter T cells, human serum albumin was incubated with penicillin, and then dialysed extensively. The resulting penicillin-modified-albumin was incubated with purified human CD4 T cells for 3 hours, and the cells were lysed and tested by western blot with monoclonal Pen 9 antibody. T cells were harvested after 1, 2, or 3 hrs. Cytoplasmic (“Cyto”) and nuclear (“Nucl”) fractions were run on SDS transferred to nitrocellulose and tested with Pen 9 antibody. […] Cytoplasmic and nuclear penicillin-labeled-albumin was seen after 1 hr, and peaked at 3 hr.
# [1] = tested on: encephalitogenic BP10 line; assay: Adoptive EAE: BP10 T-cell line stimulated in vitro with test substance, then injected into naive rats; format: in vivo, rat; conditions: BP10 line stimulated 3 days with 5 mg/ml in stimulation medium, control untreated line
# Protocol: Antigen-specific T-cell lines were established from lymph node cells that had been stimulated with myelin basic protein (MBP; 10 μg/ml) for 3 days in stimulation medium as described below. Following stimulation, the T-cell blasts were isolated on LYMPHOPREP™ (Nycomed Pharma, Oslo, Norway) and seeded in propagation medium. Propagation medium was identical to stimulation medium without autologous serum, but supplemented with fetal calf serum 10% and T-cell growth factors from the supernatant of Con A stimulated spleen cells 10% (Mor et al. (1990) J Clin Invest, 85, 1594-1598). Animals were injected intra-peritoneally with 107 MBP-stimulated T cells, following 6-8 cycles of in vitro stimulations. It is known that MBP-reactive lines undergo a reduction in pathogenicity after 6 or more in vitro stimulations. In some experiments the BP10 line was stimulated with phorbol myristate acetate (PMA; 50 ng/ml) and ionomycin (500 ng/ml) for 3 days in stimulation medium, without antigen-presenting cells.
# Active EAE was induced by subcutaneous injection of 25 μg guinea-pig MBP (GpMBP) in complete Freund's adjuvant (CFA). […] Adoptive EAE was transferred by intra-peritoneal injection of guinea-pig MBP-activated cells of the BP10 line as described in Mor et al. (1993) J Clin Invest, 92, 2199-2206. […] Clinical scoring was: +1, paralysis of tail; +1.5, paresis of posterior paws and ataxia; +2, paraplegia; +3, paralysis extending to thoracic spine; +4, a moribund state.
# Treatment with cefuroxime in vivo could affect many different host agents involved in EAE or AA as well as influencing the rats' bacterial flora. To test whether the antibiotic might directly modify the behavior of effector T cells, an encephalitogenic T-cell line was stimulated in the presence or absence of cefuroxime in vitro. […] The activated T cells were then washed to remove the antibiotic, the T cells were injected intra-peritoneally into naïve recipient rats (10^7 per rat), and EAE was scored. […]
substance,measurement,setting,value
"penicillin-modified albumin: human serum albumin incubated with penicillin, and then dialysed extensively",time of peak of cytoplasmic and nuclear penicillin-labeled albumin,"human CD4 T cells; harvest after 1, 2 or 3 hrs",3 h
same,time until detectable in the nuclei,human CD4 T cells; incubated with purified human CD4 T cells,≤ 1 h
same,severity of adoptive EAE mediated by the BP10 line,[1],enhanced the pathogenicity of the T cells
same,severity of adoptive EAE mediated by the BP10 line,[1]; listed as Penicillin-modified albumin,augments the pathogenicity of BP10 line
unmodified human albumin: human albumin not incubated with penicillin (Calbiochem),severity of adoptive EAE mediated by the BP10 line,[1],no significant effect
